The assay has as its target T1, Carbonic anhydrase (Helicobacter pylori, UniProt Q08IJ2).
T1 sequence (Q08IJ2 whole entry): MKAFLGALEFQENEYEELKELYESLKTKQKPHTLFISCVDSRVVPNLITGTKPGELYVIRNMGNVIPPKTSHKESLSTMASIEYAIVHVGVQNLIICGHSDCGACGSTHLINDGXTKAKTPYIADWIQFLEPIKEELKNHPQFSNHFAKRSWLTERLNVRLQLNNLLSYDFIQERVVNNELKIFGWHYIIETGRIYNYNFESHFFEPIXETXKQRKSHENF
The assay can be described thus: An Applied Photophysics stopped-flow instrument has been used for assaying the CA catalysed CO2 hydration activity Khalifah RG. The carbon dioxide hydration activity of carbonic anhydrase. I. Stop-flow kinetic studies on the native human isoenzymes B and C. […] The CO2 concentrations ranged from 1.7 to 17 mM for the determination of the kinetic parameters and inhibition constants. […] The uncatalyzed rates were determined in the same manner and subtracted from the total observed rates. Stock solutions of inhibitor (10 mM) were prepared in distilled-deionized water and dilutions up to 0.01 nM were done thereafter with distilled-deionized water. Inhibitor and enzyme solutions were preincubated together for 15 min at room temperature prior to assay, in order to allow for the formation of the E-I complex. Particulars: pH 7.5; 25 °C.

`[O]=[Re](=[O])(=[O])[OH]` came in with a Ki of 820 µM.
The result for `O=C(O)O` [CO3(2-)] reads 420 µM.
